# Results from ChEMBL document CHEMBL3621100, “Discovery of Novel Class I Histone Deacetylase Inhibitors with Promising in Vitro and in Vivo Antitumor Activities” (J Med Chem, 2015).
# The chains behind the UniProt entries cited, without tags or fusion partners. Where a name states a change or a piece, a line headed by the entry shows the natural chain unless it says otherwise.
# UniProt O15379: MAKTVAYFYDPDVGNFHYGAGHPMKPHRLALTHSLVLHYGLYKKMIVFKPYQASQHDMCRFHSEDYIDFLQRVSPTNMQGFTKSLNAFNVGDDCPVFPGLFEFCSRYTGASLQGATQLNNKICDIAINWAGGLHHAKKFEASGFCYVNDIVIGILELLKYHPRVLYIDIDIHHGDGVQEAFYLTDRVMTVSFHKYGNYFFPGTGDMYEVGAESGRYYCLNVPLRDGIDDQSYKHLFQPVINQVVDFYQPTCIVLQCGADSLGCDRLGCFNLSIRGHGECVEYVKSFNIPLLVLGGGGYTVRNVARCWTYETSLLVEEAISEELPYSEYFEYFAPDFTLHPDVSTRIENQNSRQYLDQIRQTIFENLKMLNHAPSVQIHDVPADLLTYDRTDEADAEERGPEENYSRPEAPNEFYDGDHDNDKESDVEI
# Molecular target: Histone deacetylase 3 (Homo sapiens, UniProt O15379)
# Test: Inhibition of recombinant human HDAC3 after 60 mins by fluorescence assay
structure (smiles),measurement,value
"C/C=C1\NC(=O)C(CS)NC(=O)[C@@H](C(C)C)NC(=O)C[C@@H](/C=C/CCS)OC(=O)[C@H](C(C)C)NC1=O (single isomer, unassigned) [FR-135313]",IC50,4.8 nM
